Laboratory results taken from ChEMBL document CHEMBL2424579, “Quinazolin-4-one derivatives as selective histone deacetylase-6 inhibitors for the treatment of Alzheimer's disease” (J Med Chem, 2013).

How the values were obtained:
Homo sapiens [1] = organism: Homo sapiens; assay: Selectivity index, ratio of IC50 for human recombinant HDAC1 to IC50 for human recombinant HDAC6
Homo sapiens [2] = organism: Homo sapiens; assay: Selectivity index, ratio of IC50 for human recombinant HDAC8 to IC50 for human recombinant HDAC6

O=C(/C=C/c1ccc2c(=O)n(CCc3ccccc3)cnc2c1)NO
Ratio IC50 (Homo sapiens [1]): 14 | Ratio IC50 (Homo sapiens [2]): 17

CCc1nc2ccc(Cc3ccc(C(=O)NO)cc3)cc2c(=O)n1CCc1ccccc1
Ratio IC50 (Homo sapiens [1]): 95 | Ratio IC50 (Homo sapiens [2]): 9

CCc1nc2cc(/C=C/C(=O)NO)ccc2c(=O)n1CCc1ccccc1
Ratio IC50 (Homo sapiens [1]): 108 | Ratio IC50 (Homo sapiens [2]): 107

CC(C)c1nc2cc(/C=C/C(=O)NO)ccc2c(=O)n1CCc1ccccc1
Ratio IC50 (Homo sapiens [1]): 30

CCc1nc2cc(Cc3ccc(C(=O)NO)cc3)ccc2c(=O)n1CCc1ccccc1
Ratio IC50 (Homo sapiens [1]): 539 | Ratio IC50 (Homo sapiens [2]): 19

CCc1nc2cc(/C=C/C(=O)NO)ccc2c(=O)n1CCc1ccc(F)cc1
Ratio IC50 (Homo sapiens [1]): 49 | Ratio IC50 (Homo sapiens [2]): 21

Cc1nc2cc(/C=C/C(=O)NO)ccc2c(=O)n1Cc1ccccc1
Ratio IC50 (Homo sapiens [1]): 60 | Ratio IC50 (Homo sapiens [2]): 53

CCc1nc2cc(/C=C/C(=O)NO)ccc2c(=O)n1CCc1ccc(OC)cc1
Ratio IC50 (Homo sapiens [1]): 44 | Ratio IC50 (Homo sapiens [2]): 14

O=C(/C=C/c1ccc2c(=O)n(CCc3ccccc3)c(C3CC3)nc2c1)NO
Ratio IC50 (Homo sapiens [1]): 11

CCc1nc2cc(/C=C/C(=O)NO)ccc2c(=O)n1CCCc1ccccc1
Ratio IC50 (Homo sapiens [1]): 97 | Ratio IC50 (Homo sapiens [2]): 40

CCc1nc2cc(F)c(/C=C/C(=O)NO)cc2c(=O)n1CCc1ccccc1
Ratio IC50 (Homo sapiens [1]): 243 | Ratio IC50 (Homo sapiens [2]): 96
